Results reported in article PMC10787407, “Regulation of polysaccharide in Wu‐tou decoction on intestinal microflora and pharmacokinetics of small molecular compounds in AIA rats” (Chinese Medicine, 2024).

Assay: PK study of SM components in plasma of AIA rats by UPLC-MS/MS (MG vs MPS group)
Details: for AUC 0-t / AUC 0-∞ / C max / T max / t 1/2: then oral SM 39.2 g crude drug/kg, plasma, mean ± SEM; for Absorption under the intervention of PS: MPS vs MG group
[1] = MG group: AIA rats, saline 21 days
[2] = MPS group compared with the MG group, AIA rats
[3] = MPS group: AIA rats, oral PS 9.8 g crude drug/kg/day 21 days

Substance | AUC 0-t [1] | AUC 0-∞ [1] | C max [1] | T max [1] | t 1/2 [1] | Change of AUC 0-t after oral PS [2] | Change of AUC 0-∞ after oral PS [2] | AUC 0-t [3] | AUC 0-∞ [3] | C max [3] | T max [3] | t 1/2 [3] | Absorption under the intervention of PS (AIA rats) | Change of C max after oral PS [2]
Liquiritin apioside | 941.302 ± 42.085 ng·h/mL | 1053.558 ± 63.193 ng·h/mL | 571.677 ± 49.414 ng/mL | 0.250 ± 0.001 h | 4.060 ± 0.589 h | increased | increased | 1580.263 ± 242.037 ng·h/mL | 1669.308 ± 244.694 ng·h/mL | 850.691 ± 179.709 ng/mL | 0.083 ± 0.001 h | 2.969 ± 0.328 h | increased | –
Methylephedrine | 27.900 ± 4.829 ng·h/mL | 30.265 ± 3.815 ng·h/mL | 14.012 ± 2.615 ng/mL | 0.083 ± 0.001 h | 4.131 ± 1.363 h | decreased significantly | decreased significantly | 16.109 ± 2.770 ng·h/mL | 18.607 ± 4.409 ng·h/mL | 12.523 ± 3.287 ng/mL | 0.083 ± 0.001 h | 4.331 ± 0.765 h | decreased | –
Oxypaeoniflorin | 61.034 ± 2.601 ng·h/mL | 67.007 ± 3.218 ng·h/mL | 28.569 ± 0.784 ng/mL | 0.437 ± 0.110 h | 3.408 ± 0.586 h | significantly higher | significantly higher | 70.355 ± 1.558 ng·h/mL | 75.327 ± 2.198 ng·h/mL | 31.514 ± 0.848 ng/mL | 0.458 ± 0.093 h | 3.399 ± 0.306 h | increased | significantly higher
